The chains behind the UniProt entries cited, without tags or fusion partners. Residues count along the entry.
UniProt O60674, 808-1132: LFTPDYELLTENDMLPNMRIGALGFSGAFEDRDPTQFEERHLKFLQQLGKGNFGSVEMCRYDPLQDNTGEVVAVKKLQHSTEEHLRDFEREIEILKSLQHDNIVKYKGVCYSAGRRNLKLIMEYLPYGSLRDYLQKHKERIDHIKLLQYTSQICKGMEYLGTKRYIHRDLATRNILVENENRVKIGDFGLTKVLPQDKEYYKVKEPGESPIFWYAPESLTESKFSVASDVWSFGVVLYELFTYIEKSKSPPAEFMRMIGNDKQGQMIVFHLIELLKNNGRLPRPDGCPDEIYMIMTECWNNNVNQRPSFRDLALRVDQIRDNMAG

According to patent US10251889B2, “Substituted pyrazolo[1,5-a]pyrimidine compounds as Trk kinase inhibitors” (Array BioPharma, Inc., priority 2009, dated 2019):

Molecular target: Jak2 (human Jak2 kinase domain, amino acids 808-1132) (Homo sapiens (Human), UniProt O60674)
Experiment: Jak2 inhibition assay (Omnia kinase assay)
Type: biochemical
Conditions: read-out: Jak2 Enzyme (% inhibition at 1000 nM), Table 1; 1000 nM test compound
Procedure: The assays described in Examples C, D, E and F for the determination of JAK1, JAK2, JAK3 and Tyk2 kinase activity, respectively, utilized the Omnia® Kinase fluorescence peptide substrate-based technology (Invitrogen). […] The reactions were therefore read at excitation 360 nm and emission was measured at 485 nm every 50 seconds for 45 minutes using a PerkinElmer EnVision Multilabel Plate Reader.
The final buffer conditions for each of the JAK1, JAK2, JAK3 and Tyk2 assays were as follows: 25 mM HEPES, pH 7.4, 10 mM MgCl2, 0.01% Triton X-100 and 1 mM DTT.
Two-μL aliquots of these were transferred to a fresh plate for a ten-fold intermediate dilution with assay buffer. Five-μL aliquots of the diluted compounds were then transferred to 20-μL of assay mixtures described in Examples C, D, E and F for a final concentration of DMSO of 2%. […] For each plate, percent of control (POC) values were calculated for each well according to the following equation:
where Xmax=Average Uninhibited Controls • Xmin=Average Background IC50's were estimated from the POC's using a standard 4-parameter logistic model:
where A=Minimum Y (Bottom Asymptote) • B=Maximum Y (Top Asymptote) • C=EC50 • D=Slope Factor • X=Compound Concentration (nM) • Y=POC
The IC50 is defined as the concentration of inhibitor at which the POC equals 50 for the fitted curve. […]

CC(CO)(CO)NC(=O)c1cnn2ccc(N3CCC[C@@H]3c3cc(F)ccc3F)nc12 [Example 60, (R)-5-(2-(2,5-difluorophenyl)pyrrolidin-1-yl)-N-(1,3-dihydroxy-2-methylpropan-2-yl)pyrazolo[1,5-a]pyrimidine-3-carboxamide]
inhibition at 1 µM: 21.1%
